{
  "source": "patent US20240139211A1",
  "about": "“METHODS AND COMPOSITIONS FOR TREATING AMYOTROPHIC LATERAL SCLEROSIS” (Amylyx Pharmaceuticals, Inc., priority 2022, published 2024)",
  "target": "T1, MATE1 (Homo sapiens, UniProt Q96FL8)",
  "T1 sequence (Q96FL8 1-570)": "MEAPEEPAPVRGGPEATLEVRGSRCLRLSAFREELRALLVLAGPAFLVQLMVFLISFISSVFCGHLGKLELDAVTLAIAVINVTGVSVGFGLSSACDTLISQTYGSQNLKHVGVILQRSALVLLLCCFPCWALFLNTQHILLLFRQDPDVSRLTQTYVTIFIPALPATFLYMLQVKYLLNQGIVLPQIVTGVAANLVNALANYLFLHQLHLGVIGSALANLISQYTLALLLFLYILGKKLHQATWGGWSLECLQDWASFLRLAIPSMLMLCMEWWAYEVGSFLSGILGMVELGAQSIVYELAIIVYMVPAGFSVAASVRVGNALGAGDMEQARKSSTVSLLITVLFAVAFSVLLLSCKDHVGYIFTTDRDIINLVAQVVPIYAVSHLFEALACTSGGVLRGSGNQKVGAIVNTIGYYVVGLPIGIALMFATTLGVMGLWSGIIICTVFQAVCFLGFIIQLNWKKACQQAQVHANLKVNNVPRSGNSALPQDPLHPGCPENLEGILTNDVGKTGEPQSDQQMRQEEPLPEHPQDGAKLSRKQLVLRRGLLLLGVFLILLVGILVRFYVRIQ",
  "assay": "Inhibitor of MATE1, probe substrate uptake",
  "conditions": "after treatment with phenylacetic acid",
  "data": [
    {"smiles": "O=C(O)Cc1ccccc1", "note": "[Phenylacetic acid, phenylacetic acid]", "values": [
      {"measurement": "Accumulation of tetraethyl ammonium, % of initial uptake (MATE1)", "value": 2440, "unit": "%"}
    ]}
  ]
}
